This passage reports Rat.Funbound.plasma results from PMC6538186, “Using the concordance of in vitro and in vivo data to evaluate extrapolation assumptions” (PLoS ONE, 2019).

In this data set the test system is plasma protein. Nature of the data set: Plasma protein binding by rapid equilibrium dialysis (RED), fraction unbound in plasma (fup). The note with it: 5 μM, 4 hours at 37°C, This Work, below the limit of detection a default of 0.005 was assumed for modelling. For orientation: Equilibrium dialysis compares concentrations on both sides of a semipermeable membrane.
As for `CCCCOP(=O)(OCCCC)OCCCC`, the Rat.Funbound.plasma came out at 0.0257. As to `O=[N+]([O-])c1cccc([N+](=O)[O-])c1`, the Rat.Funbound.plasma came to 0.35. As for `Cc1cc([N+](=O)[O-])cc([N+](=O)[O-])c1O`, the Rat.Funbound.plasma was found to be 0.023.
